According to patent publication US20210388040A1:

Biological target: ACTB (human) (UniProt P60709)
Experiment: HA-bait purification from HEK-293T nuclear extract, glycerol gradient fractions 13-14, mass spectrometry, peptide count

Unique: 8 peptides
Substance: HA-DPF2 (from UniProt Q92785 1-391)
